According to patent US4812442A, “Tripeptide renin inhibitors” (priority 1987, dated 1989):
pIC50: −log10 of the molar value.

Chains of the proteins cited; added tags and fusions are not shown. Residues count along the entry.
UniProt P00797, 67-406, species assumed: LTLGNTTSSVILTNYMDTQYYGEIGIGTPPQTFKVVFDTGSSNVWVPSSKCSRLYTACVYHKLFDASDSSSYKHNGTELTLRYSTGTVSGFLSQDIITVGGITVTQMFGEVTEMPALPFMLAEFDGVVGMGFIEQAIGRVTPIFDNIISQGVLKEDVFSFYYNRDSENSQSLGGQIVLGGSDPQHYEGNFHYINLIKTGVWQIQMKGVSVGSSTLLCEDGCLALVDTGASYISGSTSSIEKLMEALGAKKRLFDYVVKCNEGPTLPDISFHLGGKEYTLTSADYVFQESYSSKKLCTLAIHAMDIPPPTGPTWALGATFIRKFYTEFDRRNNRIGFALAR

Biological target: renin (Homo sapiens, UniProt P00797)
Assay: Renin inhibition IC50 (methods of J. Med. Chem., 1985, 28, 1789-1790)
Format: biochemical
Excerpt: The following examples are intended to be representative and not limiting. IC50 results were obtained according to the methods described in J. Med. Chem., 1985, 28, 1789-1790.

Q: “Boc-Phe-His-ACHPA-1-piperidine [Example 8]” was tested. Which pIC50 did it give?
A: 7.96
